Earlier results on one substance are cited in US9993488B2, “Dry powder formulations for inhalation” (OtiTopic Inc., priority 2014, dated 2018).

Where two headings read alike, the source gives them in different places.

The conditions of the series: cited from earlier work.

Take insulin: under “inhaled versus injected”, the “peak plasma levels, inhalation compared to injection” value is given as “nearly double”. Further, the “time to appearance in the circulation” value runs as follows: (inhaled) “less than 30 minutes”; (injected) “about 90 minutes”.
